Compound activity deposited in PubChem BioAssay by National Center for Advancing Translational Sciences (NCATS).
Rows were chosen to be rich in hits. Some 3.7% of all compounds tested hit in one or more screens of this group.
Nrf2 ARE act – Nrf2 pathway activation. Potency, µM (series often up to 46.1 µM), without a hit: at the highest dose activation, hits mostly activators. 410,000 tested, 0.31% active. AREc32 ARE-luciferase reporter (MCF7-derived line), luminescence, 24 h; also: potency is read from the fitted curve at half-maximal effect; % of control where 0% means no effect; nearly all actives have a fitted effect of over 65% in size
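Cells of the AREc32 ARE-luciferase line are plated in OPTI-MEM containing 5% FBS and left overnight at 37 deg C. Compounds are pinned in, incubation continues 24 hr, and firefly luciferase signal is then measured.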
IL2 activator – IL-2 activation; IL-2 activation reporter assay, cell-based qHTS; stimulated with anti-CD3/CD4/CD28 beads; in transgenic mouse T cells; activation, % (series mostly up to about 46 µM); 360,000 tested, 0.065% active; AID 652025; in the data active = activation above about 50%; inconclusive = mostly about 30% to 49%; also: 0% is about no effect
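Unstimulated transgenic mouse T cells preincubated 60 min with compound, then stimulated with anti-CD3/anti-CD4-coated beads plus anti-CD28 for 18 h at 37 degrees C. IL-2 response read as EGFP and DsRed fluorescence by plate cytometry.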
A549 tox – A549 cytotoxicity, counter-screen for Nrf2 inhibitors; A549 ARE-Fluc cells, CellTiter-Fluor viability, 18-24 h; Potency, µM (doses to about 46 µM), without a hit: at the top dose activity change, negative = cytotoxicity, actives largely listed as inhibitors; 390,000 tested, 0.16% active; AID 504648; also: potency is read from the fitted curve at half-maximal effect; % is scaled to controls: 0 for no effect and ±100 for the full control effect
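A549 ARE-Fluc cells in 5% FBS OPTI-MEM, 5000 cells/well, rested 2 h then exposed to compounds in concentration-response for 18-24 h at 37 °C. Viability by CellTiter-Fluor fluorescence (Ex 405/Em 525) after 30 min; luciferase luminescence (BugLite, 15 min, RT) read afterwards.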
miR-21 FLuc – miR-21 reporter, rising signal; Potency, µM (titrated, usually from 38.3 µM), without a hit: at the highest dose reporter change, positive = more light; AID 2288; 340,000 tested, under 10 active; HeLa miR-21 FLuc reporter, luciferase, 48 h; active = well fitted rising curve with a large enough effect; inconclusive = small, poorly fitted or top-dose-only effect; inactive = no such curve, though single readings can be large or run the other way;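 note: % of control where 0% means no effect; miR-21 action dims this reporter so a rising signal means less miR-21 action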
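Compounds were titrated across several concentrations (up to approximately 40 uM) and incubated 48 hours with HeLa miR-21-FLuc reporter cells (miR-21 target sequence downstream of FLuc, endogenous miR-21). Readout was firefly luciferase luminescence after lytic detection reagent.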
ClpP mod – qHTS Assay for Activators of ClpP; ATP-dependent Clp protease proteolytic subunit (Bacillus subtilis (strain 168)), P80244; purified B. subtilis ClpP, FRET peptide cleavage, 20 min; Potency, µM (series often up to 57.5 µM), without a hit: at the top dose activity change, negative = active; 340,000 tested, 1.9% active; active = well fitted falling curve with a large enough effect; inconclusive = small, poorly fitted or top-dose-only effect; inactive = no such curve, though single readings can be large or run the other way; also: potency is read from the fitted curve at half-maximal effect; the source files actives as falling curves though it sought activators and does not explain the sign; nearly all actives have a fitted effect of over 65% in size
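ClpP 10 microg/mL final, pH 8 Tris/KCl buffer with BSA, glycerol, Tween-20; compound pinned in; FRET-FV substrate; RT 20 min; Ex320/Em430; ΔFRET vs ADEP 5.8 microM, DMSO, no enzyme.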
Nrf2 block – blocks Nrf2 signaling | A549 ARE-Fluc reporter, luciferase luminescence, 18-24 h | AID 504444 | 360,000 tested, 2.1% active | Potency, µM (highest dose often 46 µM), for the others: at the highest dose activity change, negative = inhibition, most hits filed as inhibitors; also: potency is read from the fitted curve at half-maximal effect; % is scaled to controls: 0 for no effect and ±100 for the full control effect; nearly all actives have a fitted effect of over 60% in size
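Concentration-response testing used A549 ARE_Fluc cells at 5000 cells/well. Following an 18-24 h compound incubation, viability was read by fluorescence (Ex 405/Em 525) and luciferase output by luminescence.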
* hit, by the source's call; ! = a repeat was not active; [ ] = dose if it differs, or a comment. Unless noted, calls follow the shape of the dose curve; as a rule, active = well fitted curve in the direction sought with a large enough effect; inconclusive = small, poorly fitted or top-dose-only effect, or another doubt; inactive = no such curve, though single readings can be large; an effect the other way counts as inactive or inconclusive.

The first two records, ahead of the listing:
For CCCOc1ccc(CNC(=O)C(NS(=O)(=O)c2cccs2)C(C)C)cc1 (stereo not drawn) the results were Nrf2 ARE act -0.5%, A549 tox 2.9%, miR-21 FLuc -1.8% and ClpP mod -2.6%.
For O=S(=O)(c1cccc(Cl)c1)N1CCN(c2nc(-c3cccs3)nc3ccccc23)CC1 the results were A549 tox -3.7%, ClpP mod 14.1µM*! and Nrf2 block inconclusive.

The list itself, from the start:
For CCCOc1ccc(CNC(=O)C(NS(=O)(=O)c2cccs2)C(C)C)cc1 (stereo not drawn) the results were Nrf2 ARE act -0.5%, A549 tox 2.9%, miR-21 FLuc -1.8% and ClpP mod -2.6%.
For O=S(=O)(c1cccc(Cl)c1)N1CCN(c2nc(-c3cccs3)nc3ccccc23)CC1 the results were A549 tox -3.7%, ClpP mod 14.1µM*! and Nrf2 block inconclusive.
Screening C=CCOc1ccc2c(OC)c3ccoc3nc2c1OC returned Nrf2 ARE act 2.8%, IL2 activator 0.5, A549 tox -3.5%, miR-21 FLuc -77.4%, ClpP mod 22.4µM* and Nrf2 block 29.2%.
`CCOc1c2ccoc2nc2c(OC)c(OC)ccc12` gave Nrf2 ARE act 4.9%, IL2 activator -1.8, A549 tox -3.8%, miR-21 FLuc -41.5%, ClpP mod 4.0% and Nrf2 block -8.6%.
CCOC(=O)c1c(C)c(-c2ccccc2)n(CC(=O)NCCc2ccc(C)cc2)c1C was read as Nrf2 ARE act 0.6%, A549 tox 0.0%, miR-21 FLuc -2.4%, ClpP mod -0.6% and Nrf2 block 6.3%.
Screening Cc1cccc(NC(=O)C2CCN(S(=O)(=O)c3cccs3)CC2)c1 returned Nrf2 ARE act -0.3%, IL2 activator -0.2, A549 tox -1.8%, miR-21 FLuc 6.5%, ClpP mod -11.8% and Nrf2 block -8.1%.
For O=C(Nc1ccon1)C1CCN(S(=O)(=O)c2cccs2)CC1 the results were Nrf2 ARE act 5.9%, IL2 activator 0.1, A549 tox -1.3%, miR-21 FLuc -2.0%, ClpP mod 25.1µM* and Nrf2 block 20.4%.
For Cc1ccc(NC(=O)C2CCN(S(=O)(=O)c3cccs3)CC2)cc1C the results were Nrf2 ARE act 3.3%, IL2 activator -0.6, A549 tox -21.8%, miR-21 FLuc 4.2%, ClpP mod -3.8% and Nrf2 block 25.9µM*.
For CCc1cccc(C)c1NC(=O)c1cc(S(=O)(=O)N2CCN(c3ccccc3)CC2)ccc1F the results were Nrf2 ARE act 0.7%, A549 tox -1.9%, miR-21 FLuc 0.6% and ClpP mod -1.0%.
C(=C\c1ccc(/C=C/c2ccccc2)nn1)/c1ccccc1 was read as miR-21 FLuc -7.0%.
Screening N#CCSc1nccc(/C=C/c2ccccc2)n1 returned Nrf2 ARE act 11.2µM*, IL2 activator -0.5, A549 tox 3.0%, miR-21 FLuc -45.2% and Nrf2 block inconclusive.
`Cc1ccc([N+](=O)[O-])cc1N=Nc1c(-c2ccc([N+](=O)[O-])cc2)[nH]n(C(N)=S)c1=O` gave Nrf2 ARE act 8.4%, IL2 activator -0.7, A549 tox inconclusive, miR-21 FLuc inconclusive, ClpP mod -1.0% and Nrf2 block inconclusive.
For NC(=S)n1[nH]c(-c2ccc([N+](=O)[O-])cc2)c(N=Nc2ccc(Cl)cc2)c1=O the results were Nrf2 ARE act -0.3%[9.22 µM], IL2 activator -5.6, A549 tox inconclusive, miR-21 FLuc 1.1% and Nrf2 block 5.17µM*.
Screening C/C(=N\N=C(N)N)c1cc(Cl)ccc1Cl returned Nrf2 ARE act 4.1%, IL2 activator 4.1, A549 tox inconclusive, miR-21 FLuc 14.6%, ClpP mod -0.9% and Nrf2 block 16.4µM*.
`C/C(=N\N=C(N)N)c1ccc(Cl)cc1Cl` gave Nrf2 ARE act 0.8%, IL2 activator -0.4, A549 tox -7.5%, miR-21 FLuc 0.2%, ClpP mod 0.5% and Nrf2 block -3.7%.
For COc1cc(NC(=O)Cn2nc3c(cc2=O)CC(C)CC3)cc(OC)c1OC (stereo not drawn) the results were Nrf2 ARE act -0.4%, A549 tox -0.3%, miR-21 FLuc 0.0% and ClpP mod -2.1%.
Screening CCCCNC(=O)Nc1nnc(-c2ccccc2)o1 returned Nrf2 ARE act 2.2%, IL2 activator -1.2, A549 tox -5.6%, miR-21 FLuc -23.6%, ClpP mod 14.1µM* and Nrf2 block -10.5%.
